# Measured values taken from article PMC4404319 (ACS Chemical Neuroscience, 2015).
# Molecular target: T1, NLK (Homo sapiens, UniProt Q9UBE8)
# T1 sequence (Q9UBE8 1-527): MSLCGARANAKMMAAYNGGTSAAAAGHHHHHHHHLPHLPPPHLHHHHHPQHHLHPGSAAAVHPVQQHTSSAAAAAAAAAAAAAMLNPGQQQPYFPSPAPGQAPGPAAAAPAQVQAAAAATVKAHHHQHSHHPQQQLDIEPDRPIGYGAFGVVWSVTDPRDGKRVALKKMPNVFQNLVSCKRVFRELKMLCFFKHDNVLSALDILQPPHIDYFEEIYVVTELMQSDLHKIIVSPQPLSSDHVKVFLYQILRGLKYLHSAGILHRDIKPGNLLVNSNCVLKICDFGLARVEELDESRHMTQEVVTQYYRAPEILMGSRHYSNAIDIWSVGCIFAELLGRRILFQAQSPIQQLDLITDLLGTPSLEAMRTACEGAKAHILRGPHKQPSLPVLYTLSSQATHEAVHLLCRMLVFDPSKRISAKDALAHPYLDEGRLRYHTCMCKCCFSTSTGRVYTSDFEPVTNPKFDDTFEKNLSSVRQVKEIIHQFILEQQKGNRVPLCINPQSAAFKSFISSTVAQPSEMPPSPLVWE
# Settings: selectivity p38α over atypical NLK
compound,measurement,value
"CN1CCN(c2cc(-c3ccncc3)c(-c3ccc4ccccc4c3)nn2)CC1 [MW150, 6-(4-Methylpiperazin-1-yl)-3-(naphthalen-2-yl)-4-(pyridin-4-yl)pyridazine]",IC50 for p38αMAPK better than that for NLK,~6 fold
